Assay results: patent US9815842B2, “Pyrazolo pyrimidine derivatives and their use as MALT1 inhibitors” (Novartis AG, priority 2014, dated 2017)

Protein sequences, listed by entry. Tags and fused reporters are not part of them. Residues count along the entry.
UniProt Q9UDY8, 329-824: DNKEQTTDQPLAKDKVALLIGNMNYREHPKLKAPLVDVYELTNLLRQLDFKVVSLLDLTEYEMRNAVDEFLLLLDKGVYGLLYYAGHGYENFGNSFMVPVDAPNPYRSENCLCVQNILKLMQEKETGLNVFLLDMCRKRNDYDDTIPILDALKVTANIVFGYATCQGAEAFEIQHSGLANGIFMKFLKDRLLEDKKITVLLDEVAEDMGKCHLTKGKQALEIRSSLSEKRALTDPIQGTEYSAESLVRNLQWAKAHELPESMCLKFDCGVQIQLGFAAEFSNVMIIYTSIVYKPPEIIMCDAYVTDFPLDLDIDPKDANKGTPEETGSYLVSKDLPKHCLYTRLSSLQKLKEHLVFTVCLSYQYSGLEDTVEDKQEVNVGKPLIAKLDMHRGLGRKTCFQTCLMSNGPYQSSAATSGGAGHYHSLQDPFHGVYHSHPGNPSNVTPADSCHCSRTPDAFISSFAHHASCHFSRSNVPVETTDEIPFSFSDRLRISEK

molecular target: C-domain of MALT1 (amino acids 329-824) (Homo sapiens (Human), UniProt Q9UDY8); test: MALT1 biochemical assay (fluorescence lifetime enzyme activity assay); conditions: 60 min pre-incubation, 2.5 nM enzyme, 1 μM peptide substrate
Procedure: The readout parameter is the increase of fluorescence lifetime over time, proportional to enzyme activity.
The assay employs a short peptide substrate labeled with the single fluorophore PT14 as a fluorescence lifetime probe sensitive to the cleavage state of the substrate (PT14: 6-(9-oxo-9H-acridin-10-yl)-hexanoate, AssayMetrics, UK). […] The assay buffer consists of 200 mM Tris/HCl at pH 7.5, 0.8 M Na citrate, 100 μM EGTA, 100 μM DTT and 0.05% (w/v) CHAPS. […] Test compounds were dissolved in 100% (v/v) DMSO or a mixture containing 90% (v/v) DMSO and 10% (v/v) H2O at a stock concentration of 100 mM. Serial dilutions of test compounds were prepared using either 100% (v/v) DMSO or a mixture containing 90% (v/v) DMSO and 10% (v/v) H2O.

Row | SMILES | IC50 [nM]
1 | O=C(Nc1cnc(-n2nccn2)c(C(F)(F)F)c1)Nc1cnc2cc(Cl)nn2c1-c1ccco1 [Example 63, 1-(6-(2H-1,2,3-triazol-2-yl)-5-(trifluoromethyl)pyridin-3-yl)-3-(2-chloro-7-(furan-2-yl)pyrazolo[1,5-a]pyrimidin-6-yl)urea] | 8
2 | O=C(Nc1cnc(-n2nccn2)c(Cl)c1)Nc1cnc2cc(Cl)nn2c1C1CC12CCOC2 (centres unmarked) [Example 68, 1-(5-chloro-6-(2H-1,2,3-triazol-2-yl)pyridin-3-yl)-3-(2-chloro-7-(5-oxaspiro[2.4]heptan-1-yl)pyrazolo[1,5-a]pyrimidin-6-yl)urea] | 39
3 | COc1ncc(NC(=O)Nc2cnc3cc(Cl)nn3c2-c2ccncc2)cc1Cl [Example 69, 1-(5-chloro-6-methoxypyridin-3-yl)-3-(2-chloro-7-(pyridin-4-yl)pyrazolo[1,5-a]pyrimidin-6-yl)urea] | 86
4 | CC1(c2c(NC(=O)Nc3cnc(-n4nccn4)c(Cl)c3)cnc3cc(Cl)nn23)CC1 [Example 16, 1-(5-chloro-6-(2H-1,2,3-triazol-2-yl)pyridin-3-yl)-3-(2-chloro-7-(1-methylcyclopropyl)pyrazolo[1,5-a]pyrimidin-6-yl)urea] | 2
5 | CN1CCOC(c2c(NC(=O)Nc3cnc(-n4nccn4)c(Cl)c3)cnc3cc(Cl)nn23)C1 (centres unmarked) [Example 116, 1-(5-chloro-6-(2H-1,2,3-triazol-2-yl)pyridin-3-yl)-3-(2-chloro-7-(4-methylmorpholin-2-yl)pyrazolo[1,5-a]pyrimidin-6-yl)urea] | 71
6 | C[C@H](c1c(NC(=O)Nc2cnc(-n3nccn3)c(Cl)c2)cnc2cc(Cl)nn12)N(C)C [Example 121, (R)-1-(5-chloro-6-(2H-1,2,3-triazol-2-yl)pyridin-3-yl)-3-(2-chloro-7-(1-(dimethylamino)ethyl)pyrazolo[1,5-a]pyrimidin-6-yl)urea] | 20
7 | O=C(Nc1cnc(-n2nccn2)c(Cl)c1)Nc1cnc2cc(Cl)nn2c1C1COCCO1 (centres unmarked) [Example 43, 1-(5-chloro-6-(2H-1,2,3-triazol-2-yl)pyridin-3-yl)-3-(2-chloro-7-(1,4-dioxan-2-yl)pyrazolo[1,5-a]pyrimidin-6-yl)urea] | 9
8 | COCC1(c2c(NC(=O)Nc3ccnc(C(F)(F)F)c3)cnc3cc(Cl)nn23)CCC1 [Example 51, 1-(2-chloro-7-(1-(methoxymethyl)cyclobutyl)pyrazolo[1,5-a]pyrimidin-6-yl)-3-(2-(trifluoromethyl)pyridin-4-yl)urea] | 6
9 | CCC(C)c1c(NC(=O)Nc2cnc(-n3nccn3)c(Cl)c2)cnc2cc(Cl)nn12 (centres unmarked) [Example 35, 1-(7-(sec-butyl)-2-chloropyrazolo[1,5-a]pyrimidin-6-yl)-3-(5-chloro-6-(2H-1,2,3-triazol-2-yl)pyridin-3-yl)urea] | 3
10 | COc1ncc(NC(=O)Nc2cnc3cc(Cl)nn3c2C2CCC(C)O2)cc1Cl (centres unmarked) [Example 87, 1-(5-chloro-6-methoxypyridin-3-yl)-3-(2-chloro-7-(5-methyltetrahydrofuran-2-yl)pyrazolo[1,5-a]pyrimidin-6-yl)urea] | 7
11 | O=C(Nc1cnc(-n2nccn2)c(C(F)(F)F)c1)Nc1cnc2cc(Cl)nn2c1C1CCCO1 (centres unmarked) [Example 54, 1-(6-(2H-1,2,3-triazol-2-yl)-5-(trifluoromethyl)pyridin-3-yl)-3-(2-chloro-7-(tetrahydrofuran-2-yl)pyrazolo[1,5-a]pyrimidin-6-yl)urea] | 4
12 | COc1ncc(NC(=O)Nc2cnc3cc(Cl)nn3c2[C@H](C)OC)cc1Cl [Example 9, (S)-1-(5-chloro-6-methoxypyridin-3-yl)-3-(2-chloro-7-(1-methoxyethyl)pyrazolo[1,5-a]pyrimidin-6-yl)urea] | 2
13 | CO[C@@H](C)c1c(NC(=O)Nc2ccnc(C(F)(F)F)c2)cnc2cc(C)nn12 [Example 6, (S)-1-(7-(1-methoxyethyl)-2-methylpyrazolo[1,5-a]pyrimidin-6-yl)-3-(2-(trifluoromethyl)pyridin-4-yl)urea] | 10
14 | C[C@@H](c1c(NC(=O)Nc2cnc(-n3nccn3)c(Cl)c2)cnc2cc(Cl)nn12)N(C)C [Example 122, (S)-1-(5-chloro-6-(2H-1,2,3-triazol-2-yl)pyridin-3-yl)-3-(2-chloro-7-(1-(dimethylamino)ethyl)pyrazolo[1,5-a]pyrimidin-6-yl)urea] | 8
15 | COCCO[C@@H](C)c1c(NC(=O)Nc2ccnc(C(F)(F)F)c2)cnc2cc(Cl)nn12 [Example 41, (S)-1-(2-chloro-7-(1-(2-methoxyethoxy)ethyl)pyrazolo[1,5-a]pyrimidin-6-yl)-3-(2-(trifluoromethyl)pyridin-4-yl)urea] | 24
16 | CN1CCOCC1Cc1c(NC(=O)Nc2cnc(-n3nccn3)c(Cl)c2)cnc2cc(Cl)nn12 (centres unmarked) [Example 83, 1-(5-chloro-6-(2h-1,2,3-triazol-2-yl)pyridin-3-yl)-3-(2-chloro-7-((4-methylmorpholin-3-yl)methyl)pyrazolo[1,5-a]pyrimidin-6-yl)urea] | 55
17 | CO[C@H](c1c(NC(=O)Nc2cnc(-n3nccn3)c(Cl)c2)cnc2cc(Cl)nn12)[C@@H](C)OC [Example 98, 1-(5-chloro-6-(2H-1,2,3-triazol-2-yl)pyridin-3-yl)-3-(2-chloro-7-((1R,2R)-1,2-dimethoxypropyl)pyrazolo[1,5-a]pyrimidin-6-yl)urea] | 5
